Reference: patent US20180228743A1, “COMPOUNDS AND METHODS OF PROMOTING MYELINATION” (Case Western Reserve University, priority 2016, published 2018)

System: EpiSC-derived OPCs
Test: High-throughput screening of 3,000 bioactive small molecules for MBP+ oligodendrocyte formation from OPCs
Assay type: cell-based, mouse
Details: 2 μM, 72 h

Compound: Cl.Clc1ccc(N2CCN(Cc3c[nH]c4ncccc34)CC2)cc1 [L-745,870 hydrochloride]
- cell viability (% relative to DMS0): 92.82%
- fold-change in % MBP + oligodendrocytes (relative to DMSO controls of the same plate): 3.49
